Earlier results on one molecule are cited in patent publication US4096052A, “Electrochemical hydroxylation of certain aromatic compounds” (priority 1977, dated 1978).

The conditions of this data set: Table II (comparison acids), H2O.

Each structure is given as a SMILES string.

As to `CC(=O)O` [acetic, acetic acid], the “Ka (H2 O) at 25° C” value is recorded as 1.76 × 10^-5.
